This is a selection; strong and weak results do not stand in their true shares. Activity calls are given as the source filed them.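 The calls were made as follows: active = top-ranked compounds by inhibition in the single 10 µM screen, taking a fixed number of the strongest; inactive = the rest, inconclusive results apart.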
system: phosphomevalonate kinase (Streptococcus pneumoniae D39); assay: S. pneumoniae PMK inhibitors, primary screen, biochemical, mevalonate pathway, pilot trial included (AID 539); conditions: purified PMK, PK/LDH-coupled NADH absorbance 340 nm; at 10 µM; active compounds read high;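 also: 0% = full reaction with DMSO carrier and 100% = background rate without enzyme reaction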

| Structure (SMILES) | inhibition |
| --- | --- |
| COc1ccccc1OP(C)(=O)Nc1ccc(C)cc1 (configuration not stated) | inactive: 0% |
| Cc1ccc(NP(C)(=O)Oc2ccccc2)c(C)c1 (configuration not stated) | inactive: 8% |
| O=C(OC1CN2CCC1CC2)C12CC3CC(CC(C3)C1)C2 (configuration not stated) | inactive: 8% |
| COP1(=S)c2c(C)nn(CCC#N)c2N=C(c2ccc(F)cc2)N1C (configuration not stated) | inactive: 11% |
| O=C(COc1ccccc1)OC1CN2CCC1CC2 (configuration not stated) | inactive: 5% |
| CP(=O)(NC(=O)Nc1ccccc1)Oc1ccccc1 (configuration not stated) | inactive: 0% |
| CCOP(C)(=S)SCC(=O)NC(C)C(=O)O (configuration not stated) | inactive: 10% |
| CP(=S)(Nn1cnnc1)Oc1ccccc1 (configuration not stated) | inactive: 5% |
| Cc1nn(-c2ccccc2)c2c1P(=O)(N1CCOCC1)N(C)C(c1ccccc1)=N2 (configuration not stated) | inactive: 9% |
| O=P1(Nc2ncccn2)COc2ccccc2OC1 | inactive: 9% |
| Cc1ccc(OCC(=O)OC2CN3CCC2CC3)cc1 (configuration not stated) | inactive: 3% |
| O=P1(Nc2ccc(Br)cn2)COc2ccccc2OC1 | inactive: 8% |
| O=P1(Nc2ccccn2)COc2ccccc2OC1 | inactive: 5% |
| Clc1n[nH]nc1-c1nn[nH][15n]1 | inactive: 23% |
| Cc1nc2ccc3ccccc3c2s1.O=[N+]([O-])c1cc([N+](=O)[O-])c(O)c([N+](=O)[O-])c1 | inactive: 8% |
| Cc1cccc(OCC(=O)OC2CN3CCC2CC3)c1 (configuration not stated) | inactive: 8% |
| Cc1ccc(C)c(NP(C)(=O)Oc2ccccc2)c1 (configuration not stated) | inactive: 14% |
| CCOP1(=S)c2c(C)nn(CCC#N)c2N=C(c2ccccc2F)N1C (configuration not stated) | inactive: 10% |
| CCOP1(=S)c2c(C)nn(CCC#N)c2N=C(c2ccc(F)cc2)N1C (configuration not stated) | inactive: 15% |

| Structure (SMILES) | inhibition |
| --- | --- |
| COC(=O)c1cc2c(s1)N=C(c1ccccc1)N(C)P2(=O)N1CCOCC1 (configuration not stated) | inactive: 5% |
| O=P1(Nc2nc3ccc(Cl)cc3s2)COc2ccccc2O1 (configuration not stated) | inactive: 3% |
| CP(=O)(Nc1ccccc1F)Oc1ccccc1 (configuration not stated) | inactive: 4% |
| O=P(Nc1nccs1)(c1ccccc1)c1ccccc1 | inactive: 10% |
| c1nnnn1CCn1cnnn1 | inactive: 4% |
| CCOP(C)(=S)SCC(=O)NC(C)(CC)C(=O)O (configuration not stated) | inactive: 3% |
| CP(=O)(Nc1ccc2c(c1)OCCO2)Oc1ccccc1 (configuration not stated) | inactive: 4% |
| Cc1ccccc1NP(C)(=O)Nc1ccccc1C | inactive: 10% |
| CN(C)CCOC(=O)C(O)(c1ccccc1)C1CCCCC1 (configuration not stated) | inactive: 3% |
| O=C(OC1CN2CCC1CC2)c1cccc(Cl)c1 (configuration not stated) | inactive: 10% |
| CCN(CC)CC(O)COC(=O)C(O)(c1ccccc1)C1CCCCC1 (configuration not stated) | inactive: 2% |
| CP(=O)(Oc1ccccc1)N1CCOC1=O (configuration not stated) | inactive: 14% |
| CCc1nc2c(n1)c1c(non1O)c1c2no[n+]1[O-] | inactive: 0% |
| COc1ccccc1OP(C)(=O)Nc1c(C)n(C)n(-c2ccccc2)c1=O (configuration not stated) | inactive: 2% |
| Cc1c2non([O-])c-2c(C)[n+](=O)[n+]1[O-] | inactive: 0% |
| CP(=O)(Nc1ccccn1)Oc1ccccc1 (configuration not stated) | inactive: 0% |
| COc1ccccc1OP(C)(=O)Nc1ccc(C)c(C)c1 (configuration not stated) | inactive: 3% |
| Cc1nc2ccc3ccccc3c2o1.O=[N+]([O-])c1cc([N+](=O)[O-])c(O)c([N+](=O)[O-])c1 | inactive: 9% |

Reference: PubChem BioAssay AID539 (SRMLSC, 2006)
